Data from patent publication US11655246B2, “Aminothiazole compounds as inhibitors of CTPS1” (STEP PHARMA S.A.S., priority 2017, dated 2023).

The chains behind the UniProt entries cited, without tags or fusion partners.
UniProt P17812, whole entry: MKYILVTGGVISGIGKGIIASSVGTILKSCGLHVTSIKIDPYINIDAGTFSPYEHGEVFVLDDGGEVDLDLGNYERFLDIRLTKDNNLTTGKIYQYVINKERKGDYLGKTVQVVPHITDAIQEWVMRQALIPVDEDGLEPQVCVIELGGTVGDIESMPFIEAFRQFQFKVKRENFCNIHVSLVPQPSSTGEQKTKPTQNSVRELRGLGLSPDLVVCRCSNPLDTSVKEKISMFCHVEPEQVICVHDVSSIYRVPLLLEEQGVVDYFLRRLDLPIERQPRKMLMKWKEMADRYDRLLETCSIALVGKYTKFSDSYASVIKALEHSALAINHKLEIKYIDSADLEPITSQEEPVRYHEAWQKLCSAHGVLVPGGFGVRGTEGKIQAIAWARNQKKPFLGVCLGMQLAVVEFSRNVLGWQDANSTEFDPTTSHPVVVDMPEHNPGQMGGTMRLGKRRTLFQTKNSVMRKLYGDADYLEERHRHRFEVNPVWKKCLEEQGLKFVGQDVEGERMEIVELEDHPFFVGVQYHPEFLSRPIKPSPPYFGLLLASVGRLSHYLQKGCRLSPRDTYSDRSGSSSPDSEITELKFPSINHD

Target: human CTPS1 (Homo sapiens, UniProt P17812)
Assay: Human CTPS1 enzyme inhibition (ADP-Glo Max assay)
Conditions: read-out: CTPS1 (Human CTPS1 Enzyme Inhibition data grouped by potency range), Table 17, 25° C.

| SMILES | IC50 |
| --- | --- |
| CCC(C(=O)Nc1ccc(-c2cccnc2)cn1)c1csc(NS(=O)(=O)C2CC2)n1 (centres unmarked) | 0.1 to 1 µM |
| CC(C)(C(=O)Nc1ccc(-c2cccnc2C(F)(F)F)cc1)c1csc(NS(=O)(=O)C2CC2)n1 | 1 to 10 µM |
